# Results as given in PubChem BioAssay AID2797 (The Scripps Research Institute Molecular Screening Center, 2010).
# Chains of the proteins cited; added tags and fusions are not shown.
# UniProt P37288, whole entry: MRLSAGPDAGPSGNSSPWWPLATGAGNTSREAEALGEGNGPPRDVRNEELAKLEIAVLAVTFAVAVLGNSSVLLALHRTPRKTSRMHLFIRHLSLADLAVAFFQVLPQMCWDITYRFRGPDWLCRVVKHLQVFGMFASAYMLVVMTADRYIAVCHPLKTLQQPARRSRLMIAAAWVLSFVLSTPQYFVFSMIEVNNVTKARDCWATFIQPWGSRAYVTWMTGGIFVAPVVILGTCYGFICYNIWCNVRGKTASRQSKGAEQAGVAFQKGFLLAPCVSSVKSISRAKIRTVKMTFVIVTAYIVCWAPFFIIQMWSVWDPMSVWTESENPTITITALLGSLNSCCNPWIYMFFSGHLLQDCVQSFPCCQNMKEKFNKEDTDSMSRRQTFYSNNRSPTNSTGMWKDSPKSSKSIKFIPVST
# The list shows a part of the results, in another mix than the full data. Calls of active or inactive are those of the source.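 How the source made its calls: active means activation above the mean activation of all tested compounds plus 3 SD, per screening run (cut at about 20% in these data); inactive means the rest.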
# Molecular target: Vasopressin V1a receptor (Homo sapiens) (UniProt P37288)
# Assay: V1R activation via calcium rise – fluorescence, CHO-V1R cells, counter-screen for OXTR agonist project, primary screen (AID 2797);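 further: signal is peak over basal fluorescence ratio across a 100 second FLIPR read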
# Conditions: Fluo-8 calcium fluorescence, agonist mode, at 3 µM, active compounds read high, 0% DMSO, 100% 3 nM vasopressin
row,SMILES,activation
1,O=C(O)c1cccc(Nc2c([N+](=O)[O-])cc([N+](=O)[O-])cc2[N+](=O)[O-])c1,inactive: 0.25%
2,CCCOc1ccc(NP(C)(=O)Oc2ccc(Cl)cc2)cc1 (stereo not given),inactive: -0.78%
3,CP(=O)(Nc1ccc(SC(F)(F)F)cc1)Oc1ccccc1 (stereo not given),inactive: 5.8%
4,COc1ccccc1OP(C)(=O)Nc1c(C)cccc1C (stereo not given),inactive: -1.17%
5,CN1CCCCC1COC(=O)C1(O)c2ccccc2CCc2ccccc21 (stereo not given),inactive: 1.97%
6,CCOC(=O)C(CC)C1=NC(C)(C)Cc2ccccc21.O=[N+]([O-])c1cc([N+](=O)[O-])c(O)c([N+](=O)[O-])c1 (stereo not given),inactive: -0.42%
7,CC1=C2N=C(C=C3N=C(C(C)=C4[N-][C@@](C)([C@@H]5N=C1[C@](C)(CCC(=O)NC[C@@H](C)OP(=O)([O-])O[C@H]1[C@@H](O)[C@@H](n6cnc7cc(C)c(C)cc76)O[C@@H]1CO)[C@H]5CC(N)=O)[C@@](C)(CC(N)=O)[C@@H]4CCC(N)=O)[C@@](C)(CC(N)=O)[C@@H]3CCC(N)=O)C(C)(C)[C@@H]2CCC(N)=O.[C-]#N.[Co+3],inactive: -0.15%
8,O=[N+]([O-])c1cc([N+](=O)[O-])c(Nc2nnnn2CCO)c([N+](=O)[O-])c1,inactive: 1.14%
9,Cc1nc2ccc3ccccc3c2s1.O=[N+]([O-])c1cc([N+](=O)[O-])c(O)c([N+](=O)[O-])c1,inactive: -1.16%
10,O=[N+]([O-])c1cc([N+](=O)[O-])c(-c2cnn(-c3ccccc3)c2)c([N+](=O)[O-])c1,inactive: -0.48%
11,O=[N+]([O-])c1cc([N+](=O)[O-])c(-n2nnc3ccccc32)c([N+](=O)[O-])c1,inactive: 1.18%
12,CP(=O)(Nc1ccccn1)Oc1ccc(Cl)cc1 (stereo not given),inactive: 2.35%
13,CCOP(C)(=S)SCC(=O)NC(C)C(=O)O (stereo not given),inactive: -0.07%
14,CCOC(=O)c1ccc(NP(C)(=O)Oc2ccc(OC)cc2)cc1 (stereo not given),inactive: 0.69%
15,O=[N+]([O-])c1cc([N+](=O)[O-])c(O)c([N+](=O)[O-])c1.c1ccc(Oc2ccncc2)cc1,inactive: 0.36%
16,Cc1cc(C)cc(OP(C)(=O)Nc2ccc(SC(F)(F)F)cc2)c1 (stereo not given),inactive: 1.12%
17,CP(=O)(NC(=O)Nc1ccccc1)Oc1ccccc1 (stereo not given),inactive: 1.77%
18,CCc1ccc(OP(C)(=O)N2CCN(c3ccc([N+](=O)[O-])cc3)CC2)cc1 (stereo not given),inactive: 3.75%

row,SMILES,activation
1,CP(=O)(Oc1ccccc1)OC(c1ccccc1)C(F)(F)F (stereo not given),inactive: -0.68%
2,Cc1cccc(C)c1OP(C)(=O)Nc1ccc(SC(F)(F)F)cc1 (stereo not given),inactive: 11.2%
3,CP(=O)(Nc1ccc(SC(F)(F)F)cc1)Oc1ccc(Cl)cc1 (stereo not given),inactive: -0.61%
4,COc1ccccc1OP(C)(=O)Nc1ccccc1 (stereo not given),inactive: -1.14%
5,CP(=O)(Nc1ccccc1Br)Oc1ccccc1 (stereo not given),inactive: -0.13%
6,CP(=S)(Nn1cnnc1)Oc1ccccc1 (stereo not given),inactive: 0.53%
7,COc1ccc(OP(C)(=O)Nc2cccc(F)c2)cc1 (stereo not given),inactive: 2.19%
8,COc1ccccc1OP(C)(=O)Nc1cc(Cl)ccc1C (stereo not given),inactive: -0.89%
9,Cc1cc(C)cc(OP(C)(N)=O)c1 (stereo not given),inactive: 1.24%
10,CCOC(=O)c1ccc(NP(C)(=O)Oc2ccccc2)cc1 (stereo not given),inactive: 1.34%
11,Cc1ccc(NP(C)(=O)Oc2ccccc2)c(C)c1 (stereo not given),inactive: -0.23%
12,COc1ccccc1OP(C)(=O)Nc1ccc(C)cc1 (stereo not given),inactive: 0.12%
13,Cc1cccc(C)c1OP(C)(N)=O (stereo not given),inactive: 1.01%
14,CC(C)(C)c1ccc(OP(C)(=O)Nc2ccc(SC(F)(F)F)cc2)cc1 (stereo not given),inactive: -0.29%
15,O=[N+]([O-])c1ccc2c(c1)C=Nc1ccccc1O2,inactive: 2.37%
16,O=[N+]([O-])c1cc([N+](=O)[O-])c(Nc2cccnc2)c([N+](=O)[O-])c1,inactive: 13.4%
17,CCN(CC)CCCOC(=O)C(O)(c1ccccc1)c1ccccc1,inactive: 0.07%
